# Assay results published in patent US6730675B2 (AstraZeneca AB, priority 1999, dated 2004).
# Biological target: T1, NMDA receptor glycine site (Rattus norvegicus, UniProt P35439)
# T1 construct: The rat brain membranes used in the experiments were obtained from Analytical Biological Services Inc; tissue Analytical Biological Services Inc; host or cells: rat brain membranes (cerebral cortex and hippocampus, male Sprague Dawley rats)
# Assay: Test A: Inhibition of binding of [3H]-MDL105,519 to brain membranes
# Conditions: displacement of 1.2 nM [3H]MDL105,519, brain membranes
# Text: Test A: Inhibition of Binding of [^3H]-MDL105,519:
# Binding of compounds to the NMDA receptor glycine site may be assessed by measuring the ability of test compounds to inhibit the binding of tritiated MDL105,519 to brain membranes bearing the receptor.
# Briefly, fresh brain tissue including cerebral cortex and hippocampus from male Sprague Dawley rats was homogenized in 0.32 M sucrose and centrifuged at low speed to separate cellular membranes from other cellular components. The membranes were then washed 3 times using deionized water, followed by treatment with 0.04% Triton X-100. Finally, membranes were washed six times in 50 mM Tris citrate buffer, pH 7.4, and frozen at −80° C. until use.
# [^3H]MDL105,519 (72 Ci/mmol) was purchased from Amersham. Cold MDL105,519 was purchased from Sigma/RBI. Binding assays were performed substantially in accordance with the protocol of B. M. Baron et al., J. Phannacol. […] Non specific binding was determined by using 100 μM of unlabeled MDL105,519. […] The plates were dried overnight at room temperature and bound radioactivity was measured on a Packard TopCount after the addition of 45 μL per well of the MICROSCINT O. […]
# Data analysis: Data was analyzed using a Microsoft Excel spreadsheet and GraphPad Prizm software and potency of compounds is expressed as the Ki (nM).
smiles,measurement,value
Cc1noc(C)c1Cn1nc(O)c2[nH]c3cc(Cl)ccc3c(=O)c2c1=O [Ex. 5],Ki,39 nM
